Screening results deposited in PubChem BioAssay by Broad Institute.
FGF22 binding = binders of recombinant human FGF22 by thermal shift; Q9HCT0; SYPRO orange fluorescence; percent of sucrose octasulfate shift, DMSO zero; activity (Tm shift, normalised), % at 9.99 µM; 1.5% of 340,000 active; AID 651658;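 active = mean Tm shift, scaled 0 neutral to 100 positive control, at about 1.3% or above, every replicate too, limit read from the data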
PglD DTNB = PglD (C. jejuni) enzyme inhibition; purified PglD enzyme, DTNB colorimetric CoA detection; inhibition, % at 12.5 µM; 0.098% of 360,000 active; in the data active = inhibition above about 16%, passing the limit was not always enough
PDI inh = inhibitors of human protein disulfide isomerase; P07237; PDI insulin aggregation turbidity, A650, 90 min; inhibition, % at 10 µM; 0.052% of 350,000 active; AID 588391;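 active = mean inhibition across replicates of 30% or more, whatever share of single replicates reach that level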
ARNT TACC3 PPI = ARNT/TACC3 interaction disruption. Q9Y6A5. AlphaScreen His-ARNT PAS-B/GST-TACC3 binding, luminescence; TACC3 fragment carries E629A point mutation. inhibition, % at 9.99 µM. 0.66% of 390,000 active;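 active = mean inhibition of replicates at least 50% and at least half of replicates each reaching 50%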;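 also: 0% = complete ARNT plus TACC3 wells and 100% = ARNT alone without TACC3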
UUG fidelity = alters start codon recognition fidelity in yeast; S. cerevisiae UUG-firefly luciferase reporter, luminescence/redox ratio; activity score, % at 18.7 µM; hit rate 0.13% among 350,000;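 active = replicate mean at a twofold rise or more, about +100% in these data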;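 also: firefly luciferase made from a UUG start codon reports start codon fidelity; reporter light over untreated wells divided by growth signal over untreated wells; some hits fall short of that in this replicate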
ERp5 block = inhibitors of human ERp5; 0.05% of 350,000 active; ERp5 insulin aggregation, absorbance 650 nm, 90 min; Q15084; inhibition, % at 9.99 µM;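 active = mean replicate inhibition above about 25%, with every replicate also reaching it, limit read from the data, passing the limit was not always enough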
ARNT Alpha ctr-1 = AlphaScreen artifact in ARNT/TACC3 counter-screen. shares compounds with ARNT TACC3 PPI. His-ARNT PASB-GST AlphaScreen artifact counter-screen, luminescence. AC50, µM (series often up to 68 µM), inactives show top-dose activity change, negative = signal decrease. 50% of 1,200 active. AID 651705;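 active = every separate test run was called active for a drop in luminescence, with AC50 within twice the top valid dose, actives reach about 71 µM in these data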
ARNT Alpha ctr-2 = AlphaScreen artifact flagged for ARNT-TACC3 inhibitors; 70% of 45 active; shares compounds with ARNT TACC3 PPI; AC50, µM; AID 720564; Dual-tagged His-ARNT PASB-GST AlphaScreen artifact counter-screen;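 active = luminescence drop, with half-maximal potency fitted within twice the sample's top valid dose, cut at about 70 µM in these data; inactive = the rest, including signal moving the wrong way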
* hit, by the source's call; [ ] = another dose, or the depositor's remark. Sampled rows, rich in hits. Any-hit rate of the full collection: about 1.9%.

Cc1[nH][nH]c(=O)c1C(c1ccc(-c2ccc(C(=O)O)cc2)o1)c1c(C)[nH][nH]c1=O was read as FGF22 binding -0.2, PDI inh 7.5, ARNT TACC3 PPI 72.2*, ERp5 block 0.4 and ARNT Alpha ctr-1 -11.3%.
For COc1ccc(Cc2nnc(NN)[nH]c2=O)cc1OC the results were FGF22 binding 0.3, PglD DTNB -1.9, PDI inh -10.0, ARNT TACC3 PPI active, UUG fidelity -5.1, ERp5 block -1.9 and ARNT Alpha ctr-1 26.5µM*.
COc1ccc(Cc2nnc(N/N=C(\C)c3ccccc3)[nH]c2=O)cc1OC was read as FGF22 binding 0.1, PDI inh 4.6, ARNT TACC3 PPI 47.3*, ERp5 block -8.1 and ARNT Alpha ctr-1 -14.1%.
COc1ccc(/C=N/Nc2nnc(Cc3ccc(OC)c(OC)c3)c(=O)[nH]2)cc1OC was read as FGF22 binding 0.0, PDI inh -0.4, ARNT TACC3 PPI 1.9 and ERp5 block -1.8.
CC(=O)N1CC2(C1)[C@@H](c1ccc(-c3ccccc3C)cc1)[C@@H](CO)N2C(=O)CC1CC1 was read as FGF22 binding -0.1 and ERp5 block -5.5.
COCC#Cc1cnc2c(c1)C(=O)N([C@@H](C)CO)C[C@@H](C)[C@@H](CN(C)C(=O)Cc1cccnc1)O2 was read as FGF22 binding 0.0 and ERp5 block 2.0.
Screening CO[C@H]1CN(C)C(=O)c2ccc(NC(=O)c3ccc4c(c3)OCO4)cc2OC[C@H](C)N(CCC(F)(F)F)C[C@H]1C returned FGF22 binding 0.2, PglD DTNB 0.8, ARNT TACC3 PPI -0.4 and ERp5 block 4.5.
`COC(=O)Cc1cc(=O)n(-c2nc3ccccc3[nH]2)[nH]1` gave FGF22 binding -0.1, PDI inh 5.7, ARNT TACC3 PPI 61.9*, ERp5 block 1.6, ARNT Alpha ctr-1 60.2µM* and ARNT Alpha ctr-2 37.8*.
`Cn1c(CNc2ccccc2O)nc2ccccc21` gave FGF22 binding -0.3, PglD DTNB -1.5, ARNT TACC3 PPI 66.9*, UUG fidelity -23.1, ERp5 block 9.3 and ARNT Alpha ctr-1 -31.9%.
Screening O=C(Nc1ncn[nH]1)C(F)(F)C(F)F returned PglD DTNB -2.3, PDI inh -0.1, ARNT TACC3 PPI 26.8 and UUG fidelity -3.5.
For CCC(C(=O)Nc1ncn[nH]1)(C(F)(F)F)C(F)(F)F the results were PglD DTNB 2.4, PDI inh -1.5, ARNT TACC3 PPI 10.5*, UUG fidelity -9.8 and ARNT Alpha ctr-1 -5.4%.
`Cn1c(N)c(C(=O)c2cc(-c3ccccn3)nc3ccccc23)c(=O)[nH]c1=O` gave PglD DTNB -15.2, PDI inh 0.8, ARNT TACC3 PPI 28.9*, UUG fidelity -30.8 and ARNT Alpha ctr-1 -15.0%.
For N/C(=N\NS(=O)(=O)c1cc(C(F)(F)F)cc(C(F)(F)F)c1)c1ccccn1 the results were FGF22 binding -0.2, PglD DTNB -5.0, PDI inh -9.9, ARNT TACC3 PPI 56.8*, UUG fidelity -28.1, ERp5 block 4.7 and ARNT Alpha ctr-1 -5.3%.
For C[C@H](CO)N1C[C@H](C)[C@H](CN(C)S(=O)(=O)c2ccc(Cl)cc2)Oc2c(NC(=O)Nc3cccc4ccccc34)cccc2C1=O the results were FGF22 binding 0.1, PglD DTNB -0.8, ARNT TACC3 PPI -10.8, UUG fidelity -20.1 and ERp5 block -0.1.
Screening C[C@H]1CN([C@@H](C)CO)C(=O)c2cccc(NC(=O)Nc3cccc4ccccc34)c2O[C@@H]1CN(C)S(=O)(=O)c1ccc(Cl)cc1 returned FGF22 binding -0.1, PglD DTNB 0.4, ARNT TACC3 PPI 52.7*, UUG fidelity -9.9, ERp5 block 6.7 and ARNT Alpha ctr-1 25.1µM*.
C[C@H]1CN([C@@H](C)CO)C(=O)c2cc(NC(=O)Nc3cccc4ccccc34)ccc2O[C@@H]1CN(C)C(=O)Nc1ccc(C(F)(F)F)cc1 was read as FGF22 binding 0.7, PglD DTNB 5.0, ARNT TACC3 PPI active, UUG fidelity 16.4, ERp5 block 0.8 and ARNT Alpha ctr-1 -30.6%[42 µM].
`COc1ccc(CN(C)C[C@@H]2Oc3ccc(NC(=O)Cn4cnnn4)cc3C(=O)N([C@@H](C)CO)C[C@H]2C)cc1` gave FGF22 binding 0.0, PglD DTNB -3.7, ARNT TACC3 PPI 53.8*, ERp5 block 0.9 and ARNT Alpha ctr-1 -3.7%[42 µM].
For C[C@H]1CN([C@@H](C)CO)C(=O)Cc2cc(NC(=O)Nc3cccc4ccccc34)ccc2O[C@H]1CN(C)CC1CCCCC1 the results were FGF22 binding -0.2, PglD DTNB 2.5, ARNT TACC3 PPI 51.9*, UUG fidelity 9.5, ERp5 block 7.0 and ARNT Alpha ctr-1 -31.5%[42 µM].
For COc1ccc(CN(C)C[C@H]2Oc3ccc(NC(=O)Cn4cnnn4)cc3C(=O)N([C@H](C)CO)C[C@@H]2C)cc1 the results were FGF22 binding 0.0, PglD DTNB -1.9, ARNT TACC3 PPI 24.2 and ERp5 block -2.8.
`C[C@@H]1CN([C@@H](C)CO)C(=O)c2cc(NC(=O)Nc3cccc4ccccc34)ccc2O[C@@H]1CN(C)C(=O)Nc1ccc(C(F)(F)F)cc1` gave FGF22 binding -0.7, PglD DTNB -0.7, ARNT TACC3 PPI -1.3, UUG fidelity -13.0 and ERp5 block -0.8.
For C[C@@H]1CN([C@@H](C)CO)C(=O)c2cc(C3=CCCC3)cnc2O[C@@H]1CN(C)C(=O)Nc1ccc(F)cc1 the results were FGF22 binding -0.1, PglD DTNB -2.7, ARNT TACC3 PPI -4.2, UUG fidelity 3.0 and ERp5 block -0.5.
C[C@H](CO)N1C[C@H](C)[C@H](CN(C)Cc2ccc(Oc3ccccc3)cc2)Oc2ccc(NC(=O)Nc3cccc4ccccc34)cc2CC1=O was read as FGF22 binding 0.2, PglD DTNB 5.7, PDI inh 14.2, ARNT TACC3 PPI -3.3, UUG fidelity -9.2 and ERp5 block 1.3.
COc1ccc(NC(=O)Nc2ccc3c(c2)CC(=O)N([C@@H](C)CO)C[C@@H](C)[C@H](CN(C)Cc2ccc(Oc4ccccc4)cc2)O3)cc1 was read as FGF22 binding 0.0, PglD DTNB -1.2, ARNT TACC3 PPI 58.3*, UUG fidelity 15.3, ERp5 block 2.6 and ARNT Alpha ctr-1 20µM*.
C[C@H](CO)N1C[C@H](C)[C@@H](CN(C)C(=O)Nc2ccc3c(c2)OCO3)Oc2ccc(NC(=O)CCN3CCOCC3)cc2CC1=O was read as FGF22 binding 0.2, PglD DTNB -3.5, ARNT TACC3 PPI 50.5*, UUG fidelity 3.6, ERp5 block 1.5 and ARNT Alpha ctr-1 -14.3%[42 µM].

Arranged by length of the SMILES (ascending): some entries from above
For C[C@@H]1CN([C@@H](C)CO)C(=O)c2cc(C3=CCCC3)cnc2O[C@@H]1CN(C)C(=O)Nc1ccc(F)cc1 the results were FGF22 binding -0.1, PglD DTNB -2.7, ARNT TACC3 PPI -4.2, UUG fidelity 3.0 and ERp5 block -0.5.
C[C@H](CO)N1C[C@H](C)[C@H](CN(C)Cc2ccc(Oc3ccccc3)cc2)Oc2ccc(NC(=O)Nc3cccc4ccccc34)cc2CC1=O was read as FGF22 binding 0.2, PglD DTNB 5.7, PDI inh 14.2, ARNT TACC3 PPI -3.3, UUG fidelity -9.2 and ERp5 block 1.3.
COc1ccc(NC(=O)Nc2ccc3c(c2)CC(=O)N([C@@H](C)CO)C[C@@H](C)[C@H](CN(C)Cc2ccc(Oc4ccccc4)cc2)O3)cc1 was read as FGF22 binding 0.0, PglD DTNB -1.2, ARNT TACC3 PPI 58.3*, UUG fidelity 15.3, ERp5 block 2.6 and ARNT Alpha ctr-1 20µM*.
